Sequences of proteins named here, by UniProt entry; tags and fusion partners are left off. Residues count along the entry.
UniProt Q01234, whole entry: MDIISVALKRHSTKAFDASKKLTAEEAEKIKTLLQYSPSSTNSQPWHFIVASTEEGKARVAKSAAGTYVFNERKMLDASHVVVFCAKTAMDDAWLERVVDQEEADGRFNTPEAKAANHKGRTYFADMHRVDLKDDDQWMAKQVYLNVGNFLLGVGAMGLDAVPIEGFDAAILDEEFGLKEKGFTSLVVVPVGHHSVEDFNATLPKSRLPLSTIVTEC
UniProt Q6DLR9, 2-227 limits assumed: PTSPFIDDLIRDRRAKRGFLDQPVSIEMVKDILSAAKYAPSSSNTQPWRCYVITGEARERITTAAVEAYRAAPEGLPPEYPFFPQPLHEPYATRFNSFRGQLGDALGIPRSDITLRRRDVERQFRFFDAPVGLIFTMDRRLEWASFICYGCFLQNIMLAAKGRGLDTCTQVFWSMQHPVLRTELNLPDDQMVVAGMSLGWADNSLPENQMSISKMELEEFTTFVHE

In US7364881B1, “Biological process for the conversion of nitroarenes to ortho-aminophenols using recombinant E. coli strains” (dated 2008):

Key:
[1] = molecular target: E. cloacae nitroreductase (Nfs1) (Enterobacter cloacae, UniProt Q01234); test: Reductase activity in cell extracts (initial rate of NADPH disappearance), Nfs1 expressed in E. coli JS996; details: averages of duplicates, deviation <10%
Description: (§1) Cells of E. coli strains carrying the recombinant plasmids were grown at 37° C. in 250 ml of 2×TY medium or 2×LB with 1% glycerol containing 100 μg/ml ampicillin in an incubator shaker until the cultures reached an A600 of 0.8. The cells were induced with 1 mM IPTG by incubating strain JS995 at 30° C. and strain JS996 at 37° C. with shaking for 16 h. The cells were harvested, washed twice in 20 mM potassium phosphate buffer, pH 8, and used directly in whole-cell transformation assays or for the preparation of cell extracts.
(§2) Cells were broken by two passages through a French pressure cell at 20,000 lb/in^2. The resulting lysate was centrifuged at 17,000×g for 20 min at 4° C., and the supernatant was used for enzyme assays. Reductase activity for various nitroaromatic compounds was determined spectrophotometrically by measuring the initial rate of NADPH disappearance. The activity of HAB mutase A was measured spectrophotometrically by monitoring the increase in absorbance at 283 nm, which indicates the formation of 2-aminophenol (2AP) from HAB.

[2] = system: host strains carrying only the vectors; test: Nitroreductase activity in extracts of host strains carrying only the vectors
Description: as §1, §2

[3] = molecular target: NB nitroreductase (NbzA) (Ectopseudomonas oleovorans, UniProt Q6DLR9); test: Reductase activity in cell extracts (initial rate of NADPH disappearance), NbzA expressed in E. coli JS995; details: averages of duplicates, deviation <10%
Description: as §1, §2

Cc1c([N+](=O)[O-])cc([N+](=O)[O-])cc1[N+](=O)[O-]
Specific activity of recombinant nitroreductase Nfs1 in cell extracts [1]: 11.1 μmol of NADPH oxidized min^−1 mg^−1 protein | Nitroreductase activity in the control host strain containing vector alone [2]: 0.30 U mg^−1 protein | Specific activity of recombinant nitroreductase NbzA in cell extracts [3]: 2.6 μmol of NADPH oxidized min^−1 mg^−1 protein

Only a part of the results on these compounds is given; other tests are left out.
